Assay results taken from ChEMBL document CHEMBL1287717, “Design and synthesis of macrocyclic indoles targeting blood coagulation cascade Factor XIa” (Bioorg Med Chem Lett, 2010).

Molecular target: Prothrombin (Homo sapiens, UniProt P00734)
Assay: Inhibition of factor 2a

O=C1COc2ccc(Cl)cc2CNC(=O)[C@@H]2CCCN2C(=O)[C@@H](C2CCCCC2)NC(=O)CCN1
Ki: 1.3 nM
